Key:
[1] = Solubility of calcium gluconate prepared enzymatically in the presence of calcium lactate
[2] = pH 5; cited from earlier work

calcium gluconate
total calcium content of clear solutions without crystals [1]: > 46 g total calcium/kg solution
solubility under the conditions required for optimal enzymatic conversion [2]: 40 mg/mL

From patent US7618664B2, “Method for preparing calcium gluconate” (Cooperatieve Verkoop-en Productievereniging Van …, priority 2001, dated 2009)
